According to article PMC10313921, “A living ex vivo platform for functional, personalized brain cancer diagnosis” (Cell Reports Medicine, 2023):

Tested on: MB231Br (breast cancer metastasis to brain)
Experiment: Drug screening of MB231Br tumor foci on OBSCs
Assay type: cell-based, human

CC(=O)Nc1cccc(-n2c(=O)n(C3CC3)c(=O)c3c(Nc4ccc(I)cc4F)n(C)c(=O)c(C)c32)c1 [Trametinib]
EC10 (dose required to kill 10% of the tumor): 32.3 nM | EC25 (dose required to kill 25% of the tumor): 80.6 nM
